{
  "sequences": {"note": "Chains of the proteins cited; added tags and fusions are not shown.", "UniProt P23944, whole entry": "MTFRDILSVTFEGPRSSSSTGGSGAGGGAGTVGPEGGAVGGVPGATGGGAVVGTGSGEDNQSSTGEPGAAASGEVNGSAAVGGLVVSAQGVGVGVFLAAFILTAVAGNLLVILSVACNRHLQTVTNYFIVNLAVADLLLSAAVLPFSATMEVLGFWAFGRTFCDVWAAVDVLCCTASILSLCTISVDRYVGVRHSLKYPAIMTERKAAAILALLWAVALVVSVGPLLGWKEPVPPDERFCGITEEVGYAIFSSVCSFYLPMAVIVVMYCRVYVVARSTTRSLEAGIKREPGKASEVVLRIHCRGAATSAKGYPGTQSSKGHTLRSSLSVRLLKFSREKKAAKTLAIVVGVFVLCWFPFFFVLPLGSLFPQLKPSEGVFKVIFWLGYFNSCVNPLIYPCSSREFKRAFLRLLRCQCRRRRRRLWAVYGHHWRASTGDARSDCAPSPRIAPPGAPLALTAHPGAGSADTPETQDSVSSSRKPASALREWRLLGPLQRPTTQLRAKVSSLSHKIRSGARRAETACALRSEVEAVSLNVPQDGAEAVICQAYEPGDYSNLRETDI"},
  "source": "ChEMBL document CHEMBL1134501",
  "about": "“Structure-activity studies for a novel series of bicyclic substituted hexahydrobenz[e]isoindole alpha1A adrenoceptor antagonists as potential agents for the symptomatic treatment of benign prostatic hyperplasia” (J Med Chem, 2001)",
  "key": {"[1]": {"molecular_target": "T1, Alpha-1A adrenergic receptor (Rattus norvegicus, UniProt P43140)", "T1 sequence (P43140 whole entry)": "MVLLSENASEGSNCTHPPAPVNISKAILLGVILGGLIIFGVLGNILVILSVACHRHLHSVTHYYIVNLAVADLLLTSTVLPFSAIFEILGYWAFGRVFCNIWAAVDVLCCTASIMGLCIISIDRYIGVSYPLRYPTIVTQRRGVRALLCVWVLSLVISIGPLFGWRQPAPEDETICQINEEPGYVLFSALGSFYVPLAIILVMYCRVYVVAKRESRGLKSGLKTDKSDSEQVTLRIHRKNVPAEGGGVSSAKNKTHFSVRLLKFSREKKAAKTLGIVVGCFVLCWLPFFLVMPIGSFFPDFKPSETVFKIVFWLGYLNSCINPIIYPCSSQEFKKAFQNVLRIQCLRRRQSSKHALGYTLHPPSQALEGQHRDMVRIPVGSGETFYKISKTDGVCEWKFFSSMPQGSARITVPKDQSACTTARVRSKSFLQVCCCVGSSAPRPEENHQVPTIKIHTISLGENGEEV", "assay": "Binding affinity to alpha-1A adrenergic receptor in rat submaxillary gland", "format": "tissue-based"}, "[2]": {"molecular_target": "Alpha-1D adrenergic receptor (Rattus norvegicus, UniProt P23944)", "assay": "Binding affinity to rat alpha-1D adrenergic receptor expressed in LTK cells", "format": "cell-based"}},
  "data": [
    {"compound": "COc1cccc2c1CC[C@H]1CN(CCn3c(=O)[nH]c4cc(Cl)ccc4c3=O)C[C@@H]21", "values": [
      {"measurement": "Ki", "setting": "[1]", "value": 0.57, "unit": "nM"},
      {"measurement": "Ki", "setting": "[2]", "value": 0.58, "unit": "nM"}
    ]},
    {"compound": "COc1cccc2c1CC[C@H]1CN(CCn3c(=O)[nH]c4ncccc4c3=O)C[C@@H]21", "values": [
      {"measurement": "Ki", "setting": "[1]", "value": 1.19, "unit": "nM"}
    ]}
  ]
}
